Apparent affinities of Ab-14 variants for a coronavirus HR2 peptide

Source: Engelhart et al. 2022 (doi:10.1038/s41597-022-01779-4), MIT Lincoln Laboratory and A-Alpha Bio; data file from the FLAb repository.

Target: peptide PDVDLGDISGINAS, taken from heptad repeat 2 (HR2) of SARS-CoV-2 spike.

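The parent was found by panning a naive human phage display library on the peptide. In library AAYL50, one, two or three CDR residues were substituted; doubles and triples were drawn at random. AlphaSeq pools MATa yeast showing the antibodies with MATalpha yeast showing the peptide. After mating in shaken culture at 30 °C for 16 h, diploids were selected and their barcode pairs sequenced. Each replicate has its own calibration line, from reference interactions of the BCL2 family. The assay was run in three technical replicates.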

Parent: Ab-14, a human scFv built as VH, three GGGGS repeats, VL. Only the CDRs of the light chain vary.
VH: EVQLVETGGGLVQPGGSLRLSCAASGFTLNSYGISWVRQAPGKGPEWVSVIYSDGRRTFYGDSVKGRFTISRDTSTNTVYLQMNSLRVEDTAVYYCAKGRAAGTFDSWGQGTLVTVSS
VL: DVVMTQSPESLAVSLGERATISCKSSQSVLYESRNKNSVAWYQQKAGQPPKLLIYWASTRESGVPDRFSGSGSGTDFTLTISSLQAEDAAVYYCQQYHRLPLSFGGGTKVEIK

Substitutions are numbered in sequence along the VL above, starting at 1 (not Kabat).
This list gathers variants with a substitution at Q95 (VL, numbered from residue 1).
Affinities are written as log10 Kd with Kd in nM; a lower number is a better binder.
Averages over replicates are reported, and they cover detected replicates only.
Where no diploid with the target was found in that replicate, the entry reads "nd": below detection, most likely a poor binder, though not proof of it.

| changes | replicates, log10 nM | mean, log10 nM | empty controls |
|---|---|---|---|
| A57P Q95M | nd 4.46 nd | 4.46 | 2/9 (3.84) |
| N37C A57T Q95T | 2.30 2.30 2.64 | 2.41 | 1/9 (3.08) |
| K36W A57S Q95R | 3.14 nd nd | 3.14 | 3/9 (4.81) |
| A40Q T59K Q95I | nd nd nd | nd | 1/9 (3.96) |
| Q95G L100M | nd nd nd | nd | 0/9 |
| S26I S62T Q95K | 0.89 0.99 0.90 | 0.93 | 1/9 (5.12) |
| V39D Q95D L100P | 5.02 4.15 nd | 4.58 | 5/9 (4.60) |
| N35C K36H Q95S | 1.12 1.47 1.70 | 1.43 | 1/9 (3.41) |
| K36M A57Q Q95K | 2.01 2.36 2.26 | 2.21 | 0/9 |
| S26D Q95W R99L | nd 4.18 nd | 4.18 | 1/9 (4.15) |
| S33L Q95F Y97C | nd nd nd | nd | 0/9 |
| Y31L K36D Q95T | 0.02 0.41 0.32 | 0.25 | 0/9 |
| S25C S26F Q95F | nd nd nd | nd | 0/9 |
| S28M W56Q Q95E | -0.20 0.28 0.03 | 0.04 | 0/9 |
| Q95Y P101L | nd nd nd | nd | 0/9 |
| S28V Q95I | 4.69 nd nd | 4.69 | 2/9 (4.30) |
| N35E Q95N S103V | nd nd nd | nd | 0/9 |
| S33A T59Y Q95G | 3.44 2.90 4.44 | 3.59 | 1/9 (3.21) |
| Q95G Y97H H98R | nd 3.95 5.77 | 4.86 | 3/9 (3.22) |
| S26K Y31V Q95M | 1.16 2.12 1.38 | 1.55 | 0/9 |
| S38K Q95C R99K | 4.51 nd nd | 4.51 | 4/9 (4.57) |
| Q27L S28I Q95K | nd nd nd | nd | 1/9 (3.20) |
| E32S Q95N S103F | nd nd nd | nd | 2/9 (4.38) |
| K24S Q95E L100P | 1.19 1.13 1.21 | 1.18 | 5/9 (4.79) |
| V39K Q95K H98S | nd nd nd | nd | 4/9 (3.16) |
| V39W E61P Q95F | 3.82 4.06 nd | 3.94 | 7/9 (4.00) |
| Q95N R99T | nd nd nd | nd | 2/9 (4.48) |
| S28L Q95S | 3.41 3.29 nd | 3.35 | 1/9 (4.18) |
| S26G Q95T L100C | nd nd nd | nd | 1/9 (4.35) |
| S38V S58N Q95W | nd nd nd | nd | 2/9 (3.41) |
| N35I S58W Q95M | nd nd nd | nd | 0/9 |
| V29D Q95K H98K | nd nd nd | nd | 2/9 (5.48) |
| Q95D L102D S103P | nd nd nd | nd | 1/9 (1.54) |

The first 3 entries again:

changes	replicates, log10 nM	mean, log10 nM	empty controls
A57P Q95M	nd 4.46 nd	4.46	2/9 (3.84)
N37C A57T Q95T	2.30 2.30 2.64	2.41	1/9 (3.08)
K36W A57S Q95R	3.14 nd nd	3.14	3/9 (4.81)

Three control strains display no target. For library AAYL50, 18% of the pairings with them gave a signal, with a median of 4.19 and one signal in twenty below 2.99, so weak values seen in few replicates may be background. The control count says in how many pairings with the empty strains this scFv gave a signal, with their mean in brackets.